Data: article PMC7611940, “A Conformation Selective Mode of Inhibiting SRC Improves Drug Efficacy and Tolerability” (Cancer Research, 2021)

Chains of the proteins cited; added tags and fusions are not shown. Lines headed by an entry give the natural chain unless they say otherwise; changes in a name come on top.
UniProt Q96KB5: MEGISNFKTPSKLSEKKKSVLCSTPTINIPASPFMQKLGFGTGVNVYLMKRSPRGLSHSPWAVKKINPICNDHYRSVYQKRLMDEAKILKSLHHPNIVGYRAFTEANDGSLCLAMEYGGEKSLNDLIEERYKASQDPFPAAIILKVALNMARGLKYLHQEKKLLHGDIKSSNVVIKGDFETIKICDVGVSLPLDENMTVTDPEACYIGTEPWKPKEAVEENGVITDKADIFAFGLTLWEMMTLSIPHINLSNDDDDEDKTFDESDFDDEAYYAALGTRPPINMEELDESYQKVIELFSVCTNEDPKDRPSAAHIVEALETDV
UniProt P06493, whole entry: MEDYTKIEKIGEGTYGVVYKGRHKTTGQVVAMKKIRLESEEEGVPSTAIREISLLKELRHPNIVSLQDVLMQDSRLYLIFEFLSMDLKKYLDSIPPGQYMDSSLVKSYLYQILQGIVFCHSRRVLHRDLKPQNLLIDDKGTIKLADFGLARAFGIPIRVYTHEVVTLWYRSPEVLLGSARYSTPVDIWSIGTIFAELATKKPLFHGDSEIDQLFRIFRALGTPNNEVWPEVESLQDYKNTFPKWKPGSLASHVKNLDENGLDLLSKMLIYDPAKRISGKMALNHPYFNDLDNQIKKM
UniProt Q15569: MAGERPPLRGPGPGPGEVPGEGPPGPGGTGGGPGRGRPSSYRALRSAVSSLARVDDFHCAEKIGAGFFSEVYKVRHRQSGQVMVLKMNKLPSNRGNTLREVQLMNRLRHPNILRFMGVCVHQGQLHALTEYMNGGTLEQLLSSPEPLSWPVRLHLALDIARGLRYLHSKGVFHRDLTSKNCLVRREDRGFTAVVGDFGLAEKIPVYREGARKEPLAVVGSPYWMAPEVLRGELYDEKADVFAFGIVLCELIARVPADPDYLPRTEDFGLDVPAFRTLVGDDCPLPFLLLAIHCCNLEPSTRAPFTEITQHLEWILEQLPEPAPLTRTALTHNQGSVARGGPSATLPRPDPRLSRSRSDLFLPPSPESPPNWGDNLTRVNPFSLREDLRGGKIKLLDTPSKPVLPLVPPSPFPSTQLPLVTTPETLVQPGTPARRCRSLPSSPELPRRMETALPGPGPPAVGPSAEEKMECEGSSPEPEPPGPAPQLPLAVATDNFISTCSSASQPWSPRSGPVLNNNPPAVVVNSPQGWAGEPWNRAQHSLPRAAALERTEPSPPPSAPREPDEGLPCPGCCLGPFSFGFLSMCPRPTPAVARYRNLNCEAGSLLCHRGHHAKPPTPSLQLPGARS
UniProt Q05397, whole entry: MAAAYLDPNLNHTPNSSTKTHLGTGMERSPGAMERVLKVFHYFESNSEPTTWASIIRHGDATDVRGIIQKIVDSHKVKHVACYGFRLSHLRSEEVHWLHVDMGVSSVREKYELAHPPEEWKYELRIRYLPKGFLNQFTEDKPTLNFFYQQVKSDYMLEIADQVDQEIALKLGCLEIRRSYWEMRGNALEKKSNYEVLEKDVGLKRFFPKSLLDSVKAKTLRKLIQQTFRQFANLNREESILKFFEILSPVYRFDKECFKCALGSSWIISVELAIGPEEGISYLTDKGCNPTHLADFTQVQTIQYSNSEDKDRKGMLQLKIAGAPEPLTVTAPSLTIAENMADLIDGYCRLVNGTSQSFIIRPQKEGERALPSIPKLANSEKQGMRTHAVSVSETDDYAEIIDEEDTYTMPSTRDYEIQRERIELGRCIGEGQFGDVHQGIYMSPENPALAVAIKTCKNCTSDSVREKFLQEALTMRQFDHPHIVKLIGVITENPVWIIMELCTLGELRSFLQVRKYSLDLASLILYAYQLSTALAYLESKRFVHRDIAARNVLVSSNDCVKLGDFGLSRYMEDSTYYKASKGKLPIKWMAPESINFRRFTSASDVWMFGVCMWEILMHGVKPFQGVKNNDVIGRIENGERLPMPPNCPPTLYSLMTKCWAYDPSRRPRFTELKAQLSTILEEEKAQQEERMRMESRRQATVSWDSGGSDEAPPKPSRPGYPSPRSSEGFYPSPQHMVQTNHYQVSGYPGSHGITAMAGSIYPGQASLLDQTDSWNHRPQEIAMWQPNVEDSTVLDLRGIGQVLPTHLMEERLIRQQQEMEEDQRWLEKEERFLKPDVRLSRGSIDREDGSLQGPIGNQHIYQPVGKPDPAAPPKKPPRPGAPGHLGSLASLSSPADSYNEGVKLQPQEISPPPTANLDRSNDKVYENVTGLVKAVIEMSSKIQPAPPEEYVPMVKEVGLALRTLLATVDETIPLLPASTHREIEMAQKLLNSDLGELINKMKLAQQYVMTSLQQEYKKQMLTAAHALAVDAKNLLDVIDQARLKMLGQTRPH
UniProt P54760: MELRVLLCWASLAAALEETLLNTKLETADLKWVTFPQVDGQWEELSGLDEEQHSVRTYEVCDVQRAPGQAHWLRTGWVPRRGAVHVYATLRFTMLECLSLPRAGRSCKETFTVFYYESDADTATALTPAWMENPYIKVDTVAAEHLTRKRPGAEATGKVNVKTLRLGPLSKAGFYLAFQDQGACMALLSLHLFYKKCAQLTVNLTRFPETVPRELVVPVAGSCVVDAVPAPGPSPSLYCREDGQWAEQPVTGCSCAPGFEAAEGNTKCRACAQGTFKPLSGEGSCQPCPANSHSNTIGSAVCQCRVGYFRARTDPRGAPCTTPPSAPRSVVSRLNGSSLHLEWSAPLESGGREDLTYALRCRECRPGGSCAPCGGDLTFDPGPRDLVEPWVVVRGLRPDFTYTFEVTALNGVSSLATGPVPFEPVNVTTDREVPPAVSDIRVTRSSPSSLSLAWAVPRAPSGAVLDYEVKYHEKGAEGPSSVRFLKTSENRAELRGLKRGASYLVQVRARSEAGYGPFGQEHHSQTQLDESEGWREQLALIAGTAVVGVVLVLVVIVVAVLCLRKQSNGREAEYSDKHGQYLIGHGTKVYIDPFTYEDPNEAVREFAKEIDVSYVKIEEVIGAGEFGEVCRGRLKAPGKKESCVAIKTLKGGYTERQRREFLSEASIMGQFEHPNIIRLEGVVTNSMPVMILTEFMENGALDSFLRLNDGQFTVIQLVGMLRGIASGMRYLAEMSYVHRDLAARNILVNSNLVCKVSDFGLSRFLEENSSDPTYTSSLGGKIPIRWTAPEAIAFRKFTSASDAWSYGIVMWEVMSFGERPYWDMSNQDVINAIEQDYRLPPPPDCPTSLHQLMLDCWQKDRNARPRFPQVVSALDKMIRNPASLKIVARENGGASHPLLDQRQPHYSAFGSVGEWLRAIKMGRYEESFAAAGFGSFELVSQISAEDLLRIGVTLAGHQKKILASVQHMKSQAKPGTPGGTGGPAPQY
UniProt O43293: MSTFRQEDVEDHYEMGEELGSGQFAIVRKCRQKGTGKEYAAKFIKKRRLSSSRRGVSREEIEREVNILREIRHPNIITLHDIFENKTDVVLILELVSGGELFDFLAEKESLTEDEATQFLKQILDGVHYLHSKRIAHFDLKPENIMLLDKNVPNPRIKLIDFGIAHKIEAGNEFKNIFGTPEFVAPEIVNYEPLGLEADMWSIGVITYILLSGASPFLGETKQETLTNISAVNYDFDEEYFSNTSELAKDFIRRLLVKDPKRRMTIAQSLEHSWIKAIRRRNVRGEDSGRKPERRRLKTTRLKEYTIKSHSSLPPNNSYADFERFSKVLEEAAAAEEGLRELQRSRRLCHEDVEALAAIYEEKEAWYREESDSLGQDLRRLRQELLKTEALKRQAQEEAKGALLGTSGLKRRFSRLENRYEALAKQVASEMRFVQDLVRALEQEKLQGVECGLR
UniProt Q9Y6E0: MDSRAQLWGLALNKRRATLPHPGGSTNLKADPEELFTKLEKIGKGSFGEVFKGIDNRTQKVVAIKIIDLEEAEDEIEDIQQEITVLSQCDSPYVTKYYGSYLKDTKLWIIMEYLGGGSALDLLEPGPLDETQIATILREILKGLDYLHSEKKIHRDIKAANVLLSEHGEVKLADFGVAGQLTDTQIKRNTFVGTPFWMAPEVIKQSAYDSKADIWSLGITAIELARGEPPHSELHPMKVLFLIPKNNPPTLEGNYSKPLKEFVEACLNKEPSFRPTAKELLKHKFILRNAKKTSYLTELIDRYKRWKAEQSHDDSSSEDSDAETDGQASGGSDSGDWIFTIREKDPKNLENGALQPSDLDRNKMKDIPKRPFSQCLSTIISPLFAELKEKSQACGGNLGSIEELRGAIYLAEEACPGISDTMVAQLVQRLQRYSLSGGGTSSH
UniProt P11309, whole entry: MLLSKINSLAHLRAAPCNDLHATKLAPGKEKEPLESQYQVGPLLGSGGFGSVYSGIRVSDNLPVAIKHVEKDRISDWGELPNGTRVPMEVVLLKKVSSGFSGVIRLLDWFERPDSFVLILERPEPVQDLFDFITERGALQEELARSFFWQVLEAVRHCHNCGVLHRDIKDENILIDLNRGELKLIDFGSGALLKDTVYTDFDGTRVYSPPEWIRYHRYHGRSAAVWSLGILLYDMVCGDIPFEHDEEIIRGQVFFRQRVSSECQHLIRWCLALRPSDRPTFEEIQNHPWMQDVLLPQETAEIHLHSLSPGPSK
UniProt Q9NR20: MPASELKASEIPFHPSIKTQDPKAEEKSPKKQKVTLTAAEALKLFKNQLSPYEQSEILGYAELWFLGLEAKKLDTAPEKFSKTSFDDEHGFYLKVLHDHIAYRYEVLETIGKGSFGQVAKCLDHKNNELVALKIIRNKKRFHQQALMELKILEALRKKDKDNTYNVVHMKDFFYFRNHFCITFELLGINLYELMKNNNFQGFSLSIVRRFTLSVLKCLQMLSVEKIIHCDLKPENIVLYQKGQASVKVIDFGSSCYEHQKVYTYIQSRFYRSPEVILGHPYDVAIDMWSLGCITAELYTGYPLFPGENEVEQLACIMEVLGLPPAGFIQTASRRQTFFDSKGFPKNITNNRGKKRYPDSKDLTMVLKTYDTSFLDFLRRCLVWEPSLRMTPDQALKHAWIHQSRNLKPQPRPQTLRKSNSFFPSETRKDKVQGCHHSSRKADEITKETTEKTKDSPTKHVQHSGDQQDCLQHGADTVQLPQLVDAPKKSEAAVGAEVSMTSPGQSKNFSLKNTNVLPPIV
UniProt Q13976: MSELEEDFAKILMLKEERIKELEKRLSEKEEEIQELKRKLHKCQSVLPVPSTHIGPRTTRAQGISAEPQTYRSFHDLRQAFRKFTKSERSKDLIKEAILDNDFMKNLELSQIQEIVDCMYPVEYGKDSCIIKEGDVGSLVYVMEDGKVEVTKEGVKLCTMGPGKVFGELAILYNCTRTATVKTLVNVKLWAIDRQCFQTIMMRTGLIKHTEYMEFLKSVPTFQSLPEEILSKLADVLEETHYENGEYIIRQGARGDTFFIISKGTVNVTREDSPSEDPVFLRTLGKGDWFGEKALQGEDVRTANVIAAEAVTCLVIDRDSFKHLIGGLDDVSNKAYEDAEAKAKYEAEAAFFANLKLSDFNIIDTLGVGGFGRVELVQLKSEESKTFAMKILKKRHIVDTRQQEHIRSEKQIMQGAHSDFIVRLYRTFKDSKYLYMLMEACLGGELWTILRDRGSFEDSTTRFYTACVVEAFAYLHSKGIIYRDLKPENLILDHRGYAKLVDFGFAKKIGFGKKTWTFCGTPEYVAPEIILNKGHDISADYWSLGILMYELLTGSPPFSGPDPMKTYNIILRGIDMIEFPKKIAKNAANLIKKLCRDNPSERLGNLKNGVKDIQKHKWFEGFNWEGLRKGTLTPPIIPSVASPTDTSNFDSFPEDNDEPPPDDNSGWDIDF
UniProt P48729: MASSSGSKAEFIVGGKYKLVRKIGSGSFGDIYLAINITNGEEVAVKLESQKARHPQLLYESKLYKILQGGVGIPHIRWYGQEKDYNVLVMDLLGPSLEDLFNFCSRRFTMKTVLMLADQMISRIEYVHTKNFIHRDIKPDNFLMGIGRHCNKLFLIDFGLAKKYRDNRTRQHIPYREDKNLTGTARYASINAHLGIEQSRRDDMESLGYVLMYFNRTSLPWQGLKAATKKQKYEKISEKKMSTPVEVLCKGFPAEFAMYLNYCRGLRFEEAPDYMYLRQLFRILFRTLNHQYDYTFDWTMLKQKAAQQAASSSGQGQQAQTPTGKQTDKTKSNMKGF
UniProt Q9UIK4: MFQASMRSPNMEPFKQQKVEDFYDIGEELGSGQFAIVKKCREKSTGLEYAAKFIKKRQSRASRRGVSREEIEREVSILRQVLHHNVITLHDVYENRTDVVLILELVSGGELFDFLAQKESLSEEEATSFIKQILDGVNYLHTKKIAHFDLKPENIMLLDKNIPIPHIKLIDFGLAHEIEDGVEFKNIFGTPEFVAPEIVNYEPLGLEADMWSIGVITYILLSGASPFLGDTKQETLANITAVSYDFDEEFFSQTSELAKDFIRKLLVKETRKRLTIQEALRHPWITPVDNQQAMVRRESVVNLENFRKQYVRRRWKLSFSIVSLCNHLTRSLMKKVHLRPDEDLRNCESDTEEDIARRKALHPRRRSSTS

Legend:
Assay in all cases: biochemical
Conditions in all cases: read-out: % remaining activity
[1] = target: PLK4 (Homo sapiens, UniProt O00444)
[2] = target: PBK (Homo sapiens, UniProt Q96KB5)
[3] = target: MELK (Homo sapiens, UniProt Q14680)
[4] = target: JAK3 (Homo sapiens, UniProt P52333)
[5] = target: CDK1/cyclin B (Homo sapiens, UniProt P06493)
[6] = target: BRSK2 (Homo sapiens, UniProt Q8IWQ3)
[7] = target: T1, MSSK1 (Homo sapiens, UniProt Q9UPE1)
T1 construct: gene SRPK3

[8] = target: TESK1 (Homo sapiens, UniProt Q15569)
[9] = target: T2, STK22D (Homo sapiens, UniProt Q9BXA7)
T2 construct: gene TSSK1B

[10] = target: RIPK2 (Homo sapiens, UniProt O43353)
[11] = target: T3, FAK (Homo sapiens, UniProt Q05397)
T3 construct: gene PTK2

[12] = target: TNK1 (Homo sapiens, UniProt Q13470)
[13] = target: T4, PKCiota (Homo sapiens, UniProt P41743)
T4 construct: gene PRKCI

[14] = target: LIMK2 (Homo sapiens, UniProt P53671)
[15] = target: HIPK4 (Homo sapiens, UniProt Q8NE63)
[16] = target: EPHB4 (Homo sapiens, UniProt P54760)
[17] = target: DAPK3 (Homo sapiens, UniProt O43293)
[18] = target: RPS6KA4 (Homo sapiens, UniProt O75676)
[19] = target: SRPK2 (Homo sapiens, UniProt P78362)
[20] = target: T5, RSK4 (Homo sapiens, UniProt Q9UK32)
T5 construct: gene RPS6KA6

[21] = target: MAP4K5 (Homo sapiens, UniProt Q9Y4K4)
[22] = target: T6, ARK5 (Homo sapiens, UniProt O60285)
T6 construct: gene NUAK1

[23] = target: HCK (Homo sapiens, UniProt P08631)
[24] = target: T7, p38-gamma (Homo sapiens, UniProt P53778)
T7 construct: gene MAPK12

[25] = target: CDK9/cyclin T1 (Homo sapiens, UniProt P50750)
[26] = target: T8, MST3 (Homo sapiens, UniProt Q9Y6E0)
T8 construct: gene STK24

[27] = target: PRKG2 (Homo sapiens, UniProt Q13237)
[28] = target: CDK7/cyclin H (Homo sapiens, UniProt P50613)
[29] = target: PIM1 (Homo sapiens, UniProt P11309)
[30] = target: DYRK1A (Homo sapiens, UniProt Q13627)
[31] = target: DYRK4 (Homo sapiens, UniProt Q9NR20)
[32] = target: T9, PKG1a (Homo sapiens, UniProt Q13976)
T9 construct: gene PRKG1

[33] = target: T10, MNK2 (Homo sapiens, UniProt Q9HBH9)
T10 construct: gene MKNK2

[34] = target: FLT3 (Homo sapiens, UniProt P36888)
[35] = target: T11, CK1a1 (Homo sapiens, UniProt P48729)
T11 construct: gene CSNK1A1

[36] = target: DAPK2 (Homo sapiens, UniProt Q9UIK4)

COc1cc(-c2nn(CCN3CCC(N(C)C)CC3)c3ncnc(N)c23)ccc1NC(=O)OC(C)(C)C [eCF506]
remaining activity at 1 µM [1]: 117% | remaining activity at 1 µM [2]: 104% | remaining activity at 1 µM [3]: 92.5% | remaining activity at 1 µM [4]: 111% | remaining activity at 1 µM [5]: 95.3% | remaining activity at 1 µM [6]: 96.4% | remaining activity at 1 µM [7]: 94.9% | remaining activity at 1 µM [8]: 94.3% | remaining activity at 1 µM [9]: 102% | remaining activity at 1 µM [10]: 76.8% | remaining activity at 1 µM [11]: 114% | remaining activity at 1 µM [12]: 103% | remaining activity at 1 µM [13]: 102% | remaining activity at 1 µM [14]: 30% | remaining activity at 1 µM [15]: 105% | remaining activity at 1 µM [16]: 68.5% | remaining activity at 1 µM [17]: 93% | remaining activity at 1 µM [18]: 99.2% | remaining activity at 1 µM [19]: 100% | remaining activity at 1 µM [20]: 83.3% | remaining activity at 1 µM [21]: 81.7% | remaining activity at 1 µM [22]: 95.1% | remaining activity at 1 µM [23]: 0.8% | remaining activity at 1 µM [24]: 90.9% | remaining activity at 1 µM [25]: 109% | remaining activity at 1 µM [26]: 110% | remaining activity at 1 µM [27]: 93.7% | remaining activity at 1 µM [28]: 102% | remaining activity at 1 µM [29]: 95.9% | remaining activity at 1 µM [30]: 95.3% | remaining activity at 1 µM [31]: 101% | remaining activity at 1 µM [32]: 96.6% | remaining activity at 1 µM [33]: 107% | remaining activity at 1 µM [34]: 96.8% | remaining activity at 1 µM [35]: 111% | remaining activity at 1 µM [36]: 99.5%
